According to ChEMBL document CHEMBL1128741, “Synthesis and biological evaluation of 5-fluoro-2'-deoxyuridine phosphoramidate analogs” (J Med Chem, 1995):

Test system: B16
Assay: In vitro cytotoxicity (LC99) was measured against B16 Melanoma cells
Type: cell-based
Conditions: mouse
Procedure, shortened: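 B16 melanoma cells in exponential growth, (2–3) × 10⁶ in 10 mL serum-free MEM, exposed to drug for 2 h, then washed and resuspended in MEM + 10% FBS. Plated at 50–50 000 cells/plate, grown 8 d at 37 °C. Colonies stained with crystal violet and counted. LC99 (2-log drop in colony formation) taken from log-linear part of log surviving fraction vs concentration.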

In the case of `O=P1(N(CCCl)CCCl)NCC(O)CO1` (stereo unspecified), the LC99 is reported as 12 µM.
